Values quoted from earlier work, collected in patent publication US20240245780A1, “PHARMACEUTICAL COMPOSITIONS CONTAINING STABLE AMORPHOUS SOLID SOLUTIONS AND DISPERSIONS” (Eastman Chemical Company, priority 2021, published 2024).

Conditions: cited from earlier work

O=C1CCc2ccc(OCCCCN3CCN(c4cccc(Cl)c4Cl)CC3)cc2N1 [Aripiprazole]
pKa: 8
